Consider ten compounds from patent publication US9611224B2 (Hoffmann-La Roche Inc., priority 2012, dated 2017).

pIC50: −log10 of the molar value. Where a name gives a salt, the structure may show the parent alone.

For this experiment, the target named is BIR3 domain of XIAP (Homo sapiens (Human), UniProt P98170). Briefly: TR-FRET assay for BIR3 (inhibition of binding to Peptide A). The conditions noted are these: 6x His-tagged BIR3 domain (aa 241-356 of XIAP), 20 nM Peptide A, 10 concentrations. For orientation: In TR-FRET formats the signal depends on donor and acceptor labels being close together.
With `CN[C@@H](C)C(=O)N[C@H]1CCc2ccccc2N(Cc2c(OC)ccc3cc(-c4nccnn4)ccc23)C1=O` [Example 37, (S)—N—[(S)-1-(2-Methoxy-6-[1,2,4]triazin-3-yl-naphthalen-1-ylmethyl)-2-oxo-2,3,4,5-tetrahydro-1H-benzo[b]azepin-3-yl]-2-methylamino-propionamide hydrochloride], the pIC50 is less than 4.26.
The compound `CN[C@@H](C)C(=O)N[C@H]1CCc2ccccc2N(Cc2c(OC)ccc3cc(-c4n[nH]c(=O)[nH]4)ccc23)C1=O` [Example 34, (S)—N—{(S)-1-[2-Methoxy-6-(5-oxo-4,5-dihydro-1H-[1,2,4]triazol-3-yl)-naphthalen-1-ylmethyl]-2-oxo-2,3,4,5-tetrahydro-1H-benzo[b]azepin-3-yl}-2-methylamino-propionamide hydrochloride] showed a negative-log IC50 (pIC50) of less than 4.26.
For `CN[C@@H](C)C(=O)N[C@H]1CCc2ccccc2N(Cc2cccc3c(-c4nnn[nH]4)cccc23)C1=O` [Example 69, (S)-2-Methylamino-N—{(S)-2-oxo-1-[5-(1H-tetrazol-5-yl)-naphthalen-1-ylmethyl]-2,3,4,5-tetrahydro-1H-benzo[b]azepin-3-yl}-propionamide hydrochloride] the value was less than 4.26.
For `CN[C@@H](C)C(=O)N[C@H]1CCc2ccccc2N(Cc2c(OC)ccc3cc(NC(C)=O)ccc23)C1=O` [Example 42, (S)—N—[(S)-1-(6-Acetylamino-2-methoxy-naphthalen-1-ylmethyl)-2-oxo-2,3,4,5-tetrahydro-1H-benzo[b]azepin-3-yl]-2-methylamino-propionamide hydrochloride] the value was less than 4.26; for `CN[C@@H](C)C(=O)N[C@H]1CCc2ccccc2N(Cc2c(OC)ccc3cc(-c4nnc(C(F)(F)F)[nH]4)ccc23)C1=O` [Example 36, (S)—N—{(S)-1-[2-Methoxy-6-(5-trifluoromethyl-4H-[1,2,4]triazol-3-yl)-naphthalen-1-ylmethyl]-2-oxo-2,3,4,5-tetrahydro-1H-benzo[b]azepin-3-yl}-2-methylamino-propionamide hydrochloride], less than 4.26; for `CN[C@@H](C)C(=O)N[C@H]1CCc2ccccc2N(Cc2c(OC)ccc3c(Br)cccc23)C1=O` [Example 47o, (S)—N—[(S)-1-(5-Bromo-2-methoxy-naphthalen-1-ylmethyl)-2-oxo-2,3,4,5-tetrahydro-1H-benzo[b]azepin-3-yl]-2-methylamino-propionamide hydrochloride], less than 4.26.
With `CN[C@@H](C)C(=O)N[C@H]1CCc2ccccc2N(Cc2c(C3CC3)cnc3ccccc23)C1=O` [Example 56, (S)—N—((S)-1-((3-Cyclopropylquinolin-4-yl)methyl)-2-oxo-2,3,4,5-tetrahydro-1H-benzo[b]azepin-3-yl)-2-(methylamino)propanamide dihydrochloride] the figure was 4.39; with `CN[C@@H](C)C(=O)N[C@H]1CCc2ccccc2N(Cc2c(OC)ccc3c(F)cccc23)C1=O` [Example 64, (S)—N—((S)-1-((5-Fluoro-2-methoxynaphthalen-1-yl)methyl)-2-oxo-2,3,4,5-tetrahydro-1H-benzo[b]azepin-3-yl)-2-(methylamino)propanamide hydrochloride], less than 4.26; with `COc1ccc2cc(Br)ccc2c1CN1C(=O)[C@@H](NC(=O)[C@H](C)NC2CNC2)CCc2ccccc21` [Example 62, (S)-2-(Azetidin-3-ylamino)-N—((S)-1-((6-bromo-2-methoxynaphthalen-1-yl)methyl)-2-oxo-2,3,4,5-tetrahydro-1H-benzo[13]azepin-3-yl)propanamide dihydrochloride], less than 4.26.
In turn, `COc1ccc2cc(Br)ccc2c1CN1C(=O)[C@@H](NC(=O)[C@H](C)NCC2CC2)CCc2ccccc21` [Example 67, (S)—N—((S)-1-((6-Bromo-2-methoxynaphthalen-1-yl)methyl)-2-oxo-2,3,4,5-tetrahydro-1H-benzo[b]azepin-3-yl)-2-(cyclopropylmethylamino)propanamide] showed a pIC50 of less than 4.26.

The pIC50 is −log10 of the IC50, conventionally taken in molar units. Low readings indicate a high IC50, high ones a low IC50.
